A short description of the data set: DSC melting temperature of pure proteins and DNA hairpin in standard buffer (Example 2). It counts as physicochemical. The following applies: standard buffer pH=7.4, independent of concentration. The protocol:
Chemicals and reagents: Standard buffer for all experiments contained 150 mM NaCl, 10 mM potassium phosphate, 15 mM sodium citrate adjusted to pH=7.4 with hydrochloric acid. Pure Proteins: Human Serum Albumin (HSA) (≥99% pure, Lot number: SLBT8667) and lysozyme (recombinant, expressed in rice, Lot number: SLCH2681). The above proteins were prepared in standard buffer and stored at 4° C. for at least 24 hours before use. Concentrations of HSA and lysozyme were confirmed spectrophotometrically at A280.
DNA: The DNA was a 20-base pair hairpin purchased from IDT and received following a standard desalting routine. The DNA standard sequence is 5′-[…]-3′ (SEQ ID NO: 6). Lyophilized DNA was resuspended in standard buffer and stored at 4° C. DNA concentration matched the manufacturer specification as determined spectrophotometrically at A260.
DSC Measurements: DSC melting experiments were made using a CSC differential scanning microcalorimeter (now T.A. instruments, New Castle, Del.). […]
Baselines of the raw ΔCp or μcal versus temperature thermograms were determined using a four-point polynomial fit, over the temperature range of the transition, consistent with previous methods (Eskew et al., Anal Biochem 2021, 612:113843; Koslen et al., Adv in Biol Chem 2019, 9; Eskew et al., Anal Biochem 2021, 628:114293). […]

This passage reports Tm results from US20230049115A1, “SYSTEM AND METHOD FOR TARGET THERMAL ANALYSIS IN COMPLEX FLUIDS” (Portland State University, priority 2021, published 2023).

As for HSA: Human Serum Albumin, ≥99% pure, the melting temperature (Tm) was 63.62±0.11 °C.
